{"source": "paper PMC7408095", "about": "(Pharmaceutics, 2020)", "assay": "Plasma pharmacokinetics of metformin in rats (HPLC-UV)", "conditions": "IISOR+MET group vs VMET group", "note": "“Also recorded” adds a separate entry of the source.", "data": [{"smiles": "CN(C)C(=N)N=C(N)N", "note": "[metformin]", "values": [{"measurement": "influence of sorafenib on the exposure to metformin", "result": "did not statistically significantly influence; also recorded: did not significantly affect"}]}]}
